{
  "sequences": {"note": "The chains behind the UniProt entries cited, without tags or fusion partners.", "UniProt P10415, whole entry": "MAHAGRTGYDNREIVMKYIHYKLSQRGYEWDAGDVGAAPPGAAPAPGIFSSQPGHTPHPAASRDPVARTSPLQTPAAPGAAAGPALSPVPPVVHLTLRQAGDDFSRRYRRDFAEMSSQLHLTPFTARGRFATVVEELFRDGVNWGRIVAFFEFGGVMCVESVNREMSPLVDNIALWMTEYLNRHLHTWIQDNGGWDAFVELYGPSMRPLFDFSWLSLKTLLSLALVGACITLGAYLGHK"},
  "source": "patent US20250099481A1",
  "about": "“BCL-2 INHIBITORS” (Newave Pharmaceutical Inc., priority 2022, published 2025)",
  "origin": "cited, not measured here",
  "molecular_target": "Bcl-2 (Homo sapiens, UniProt P10415)",
  "note": "pKi: −log10 of the molar value.",
  "data": [
    {"smiles": "CC1(C)CCC(c2ccc(Cl)cc2)=C(CN2CCN(c3ccc(C(=O)NS(=O)(=O)c4ccc(N[C@H](CCN5CCOCC5)CSc5ccccc5)c(S(=O)(=O)C(F)(F)F)c4)cc3)CC2)C1", "note": "[ABT-263]", "values": [
      {"measurement": "pKi", "result": "> 9.00"}
    ]}
  ]
}
